GIV-Gai inh = inhibitors of GIV GBA-motif binding to rat Galpha-i3; P08753; Galpha-i3/FITC-GIV peptide fluorescence polarization, 90 min; hits give low values; scaled: aluminum fluoride 0%, vehicle 100%; percent of control (FP), % (no concentration beside the values); hit rate 0.42% among 210,000; AID 1224905;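 active = replicate mean at 85% of control or lower, very high polarization wells dropped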;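 note: wells of about 15 µL received 100 nL stock; the first replicate is given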
HCMV UL50-53 inh = inhibitors of HCMV UL50-UL53 interaction, biochemical, HTRF | HCMV UL50-UL53 nuclear egress complex (human cytomegalovirus) | normalized percent inhibition | inhibition, % (no concentration beside the values) | 190,000 tested, 0.15% active | AID 1918969, 2023; in the data active = inhibition above about 27%, passing the limit was not always enough
Active calls of the source: *. Rows were chosen to be rich in hits. Some 0.46% of all compounds tested hit in one or more screens of this group.

Screening CN1/C(=C\C=C2\C(=O)Oc3ccccc3C2=O)C(C)(C)c2ccccc21 returned GIV-Gai inh -32*.
`Cc1cc(C2CCCN2Cc2cc(Br)ccc2F)on1` (stereo unspecified) gave GIV-Gai inh 104.
O=C(NCC1CCCO1)c1cc(-c2ccccc2)c(N2CCCCC2)s1 (stereo unspecified) was read as GIV-Gai inh 102 and HCMV UL50-53 inh 35*.
O=C(NCC1CCCO1)c1cc2c(s1)-c1ccccc1OC2 (stereo unspecified) was read as GIV-Gai inh 111.
`Cc1ccc(CSc2nc(C(=O)O)ccc2C#N)cc1` gave HCMV UL50-53 inh 54*.
`Cc1ccc(CSc2nc(-c3cccs3)ccc2C#N)cc1` gave GIV-Gai inh 103 and HCMV UL50-53 inh -30.
Cc1cc2nc(COc3ccccc3)cc(=O)n2o1 was read as GIV-Gai inh 99 and HCMV UL50-53 inh -5.
Screening Cc1cc2nc(CN3CCCc4ccccc43)cc(=O)n2o1 returned GIV-Gai inh 75* and HCMV UL50-53 inh -60.
C=CCn1c(NS(=O)(=O)c2ccccc2)c(C#N)c2nc3ccccc3nc21 was read as HCMV UL50-53 inh 65*.
N#Cc1c(N)n(Cc2ccccc2)c2nc3ccccc3nc12 was read as HCMV UL50-53 inh -20.
For N#Cc1c(NS(=O)(=O)c2ccccc2)n(-c2ccccc2)c2nc3ccccc3nc12 the results were HCMV UL50-53 inh -42.
For Cc1ccc(S(=O)(=O)Nc2c(C#N)c3nc4ccccc4nc3n2Cc2ccccc2)cc1 the results were HCMV UL50-53 inh 77*.
For COCCCNc1c2c3c(cccc3n(C)c1=O)C(=O)c1ccccc1-2 the results were GIV-Gai inh -62*.
`CC(=O)Nc1c2c3c(cccc3n(C)c1=O)C(=O)c1ccccc1-2` gave GIV-Gai inh 94.
`CCOC(=O)C1=C(C)OC(N)=C(C#N)C1c1ccc(O)cc1` (stereo unspecified) gave GIV-Gai inh 101 and HCMV UL50-53 inh -47.
CC(=O)OCc1c(C)ccc(C2C(C#N)=C(N)OC(N)=C2C#N)c1C was read as GIV-Gai inh -1.1*.
`O=C(/C=C/c1ccc2c(c1)OCO2)Nc1ccc(Br)cc1` gave GIV-Gai inh 113 and HCMV UL50-53 inh 6.
For Oc1ccc2ccccc2c1 the results were HCMV UL50-53 inh -49.
`C[n+]1cccc2ccc(O)cc21` gave GIV-Gai inh -7.5* and HCMV UL50-53 inh -53.
O=C(c1cccc(N2C(=O)CCS2(=O)=O)c1)N1CCN(Cc2ccc3c(c2)OCO3)CC1 was read as GIV-Gai inh 106 and HCMV UL50-53 inh -6.
CC(C)CCn1c(=O)c2ccccc2n2c(CCC(=O)N3CCC(C(N)=O)CC3)nnc12 was read as GIV-Gai inh 100 and HCMV UL50-53 inh -20.
`CCCCc1cc(=O)oc2c(CN(C)C)c(O)ccc12` gave GIV-Gai inh 106 and HCMV UL50-53 inh -30.
`CC[C@@]1(O)C(=O)OCc2c1cc1n(c2=O)Cc2cc3c(CN(C)C)c(O)ccc3nc2-1` gave GIV-Gai inh -6.9* and HCMV UL50-53 inh -69.
Screening O=C(Oc1cccc(C(F)(F)F)c1)c1ccc2nonc2c1 returned GIV-Gai inh 102 and HCMV UL50-53 inh -2.

Ordered by heavy-atom count (falling): 5 of the compounds above.
CC(C)CCn1c(=O)c2ccccc2n2c(CCC(=O)N3CCC(C(N)=O)CC3)nnc12 was read as GIV-Gai inh 100 and HCMV UL50-53 inh -20.
`CC[C@@]1(O)C(=O)OCc2c1cc1n(c2=O)Cc2cc3c(CN(C)C)c(O)ccc3nc2-1` gave GIV-Gai inh -6.9* and HCMV UL50-53 inh -69.
`O=C(/C=C/c1ccc2c(c1)OCO2)Nc1ccc(Br)cc1` gave GIV-Gai inh 113 and HCMV UL50-53 inh 6.
`CCCCc1cc(=O)oc2c(CN(C)C)c(O)ccc12` gave GIV-Gai inh 106 and HCMV UL50-53 inh -30.
`C[n+]1cccc2ccc(O)cc21` gave GIV-Gai inh -7.5* and HCMV UL50-53 inh -53.

Next section
For CC1=CS/C(=C(/C#N)C(N)=O)N1c1ccccc1 the results were GIV-Gai inh 104 and HCMV UL50-53 inh -11.
Screening N#C/C(C(=O)c1ccccc1)=C1/SC=C(N)N1c1ccccc1 returned GIV-Gai inh -51* and HCMV UL50-53 inh -26.
Screening CN(C)CCCNc1cc(N2CCN(C3CCCCC3)CC2)c2noc3c2c1C(=O)c1ccccc1-3 returned GIV-Gai inh -7.2* and HCMV UL50-53 inh -151.
`Cc1ccccc1Nc1cc(N2CCCC2)c2noc3c2c1C(=O)c1ccccc1-3` gave GIV-Gai inh 109.
Screening CC1CCN(c2cc(NCc3ccccc3)c3c4c(onc24)-c2ccccc2C3=O)CC1 returned GIV-Gai inh -4.4* and HCMV UL50-53 inh -71.
For CC(C)CNc1cc(N2CCC(C)CC2)c2noc3c2c1C(=O)c1ccccc1-3 the results were GIV-Gai inh 198 and HCMV UL50-53 inh -53.
Screening CCNc1cc(N2CCOCC2)c2noc3c2c1C(=O)c1ccccc1-3 returned GIV-Gai inh -31* and HCMV UL50-53 inh -102.
`CC(C)Nc1cc(N2CCN(Cc3ccc4c(c3)OCO4)CC2)c2noc3c2c1C(=O)c1ccccc1-3` gave GIV-Gai inh -31* and HCMV UL50-53 inh -64.
`O=C1c2ccccc2-c2onc3c(N4CCN(C5CCCCC5)CC4)cc(NCCO)c1c23` gave GIV-Gai inh 100 and HCMV UL50-53 inh -136.
Screening CCNc1cc(N2CCC3(CC2)OCCO3)c2noc3c2c1C(=O)c1ccccc1-3 returned GIV-Gai inh 240 and HCMV UL50-53 inh -121.
`Cc1ccccc1Nc1cc(N2CCCCC2)c2noc3c2c1C(=O)c1ccccc1-3` gave GIV-Gai inh 107.
Screening O=C1c2ccccc2-c2onc3c(Br)cc(NC4CCCCC4)c1c23 returned GIV-Gai inh 86 and HCMV UL50-53 inh -21.
`CC1CCN(c2cc(NC(C)C)c3c4c(onc24)-c2ccccc2C3=O)CC1` gave GIV-Gai inh -4.4* and HCMV UL50-53 inh -117.
For CC(C)Nc1cc(Br)c2noc3c2c1C(=O)c1ccccc1-3 the results were GIV-Gai inh -55*.
`Cn1nc(C(=O)N2CCN(c3ccc(F)cc3)CC2)cc1C(F)(F)F` gave GIV-Gai inh 100 and HCMV UL50-53 inh 10.
`COc1cccc(C2=N/C(=C/c3ccccc3OC)C(=O)N2c2ccc(OC)c(OC)c2)c1` gave GIV-Gai inh 114.
For COc1ccccc1/C=C1\N=C(c2ccc(OC)c(OC)c2)N(c2ccc(Cl)c(Cl)c2)C1=O the results were GIV-Gai inh 100.
For COc1ccc(/C=C2\N=C(c3ccc(Cl)cc3)N(c3ccccc3Br)C2=O)cc1OC the results were GIV-Gai inh 67*.
`COc1cccc(C2=N/C(=C\c3ccccc3OC)C(=O)N2c2ccc(C)c(F)c2)c1` gave GIV-Gai inh 61*.
Screening COc1ccc(/C=C2\N=C(c3ccc(Cl)cc3)N(c3cc(Cl)ccc3C)C2=O)cc1OC returned GIV-Gai inh 131.
`COc1ccccc1/C=C1\N=C(c2ccc(OC)c(OC)c2)N(c2ccc(Cl)cc2)C1=O` gave GIV-Gai inh 77*.
COc1ccc(C2=NN(S(=O)(=O)c3ccc(C)cc3)C(c3ccc(F)cc3)C2)cc1 (stereo unspecified) was read as GIV-Gai inh 109 and HCMV UL50-53 inh 2.
Cc1cc(C)cc(N(CC(=O)N2CCN(C)CC2)S(=O)(=O)c2c(C)nn(C)c2C)c1 was read as GIV-Gai inh 99 and HCMV UL50-53 inh -8.
Screening COc1ccc(S(=O)(=O)N2CCc3nc(N4CCCCC4)ncc3C2)cc1OC returned GIV-Gai inh 107 and HCMV UL50-53 inh -12.
CCOC(Cn1c(CC)nc2ccccc21)OCC was read as GIV-Gai inh 112 and HCMV UL50-53 inh -1.
Screening COc1cc2c(C#N)c(N(C)CCc3ccc(OC)c(OC)c3)nc(N)c2c(N)n1 returned HCMV UL50-53 inh -11.
COc1ccc(CCN(C)c2nc(N)c3c(N)nc(SCC(=O)O)cc3c2C#N)cc1OC was read as HCMV UL50-53 inh 82*.
`CCN1C(=O)/C(=C/c2ccco2)NC1=S` gave GIV-Gai inh 116.
